Earlier results as cited in publication PMC3019532 (Current radiopharmaceuticals, 2010).

Conditions: rats; cited from earlier work

Substance: glucose-[^125I-Tyr^3]-octreotate [[^125I]Gluc-TOCA, reference compound]
- metabolism, form present in urine: extensive metabolism
